Wnt act: activators of Wnt/beta-catenin signaling. Wnt/beta-catenin reporter cell assay, activator, plate reader. activation, % at 9.35 µM. 1.2% of 300,000 active. AID 743398; in the data active means activation above about 30%, passing the limit was not always enough; inconclusive means no clear call, values can overlap the other calls
miR122 inh: miR-122 inhibition in Huh7 cells. Huh7 miR-122 Renilla luciferase sensor, 48 h; neutral wells = 0, positive control = 100. activation (reporter increase), % at 12.5 µM. 0.3% of 340,000 active;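 active means mean replicate activation score at least 90 and every replicate individually at or above 90; inconclusive means only one of the two criteria met; inactive means neither criterion met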;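 further: higher luciferase means less miR-122 activity so hits act as miR-122 inhibitors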
PGC1a acetyl inh: lowers PGC1a acetylation signal in U2OS cells. AlphaScreen anti-acetyl-lysine; with virally co-expressed GCN5 acetyltransferase. inhibition, % at 15.6 µM. 0.17% of 350,000 active;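 active means every replicate shows inhibition of at least 40%; inconclusive means mean inhibition at least 40% but some replicate below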
TRPM1 prom inh: inhibitors of MITF-driven TRPM1 promoter in melanoma cells. SK-MEL-5 TRPM1 promoter luciferase, 24 h. inhibition, % at 12.5 µM. 0.83% of 330,000 active;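 active means mean inhibition across replicates of 60% or more, whatever share of single replicates reaches that level; inconclusive means some that reach 60%, reason not given; inactive means mean inhibition across replicates below 60%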
MITF TRPM1 HTS: MITF TRPM1 promoter activation in melanoma cells. activation, % at 12.5 µM. AID 588334. SK-MEL-5 TRPM1-promoter luciferase, 24 h; % of positive control, neutral wells = 0. 0.75% of 300,000 active;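 active means mean activation of at least 80% with every replicate also reaching 80%; inconclusive means mean reaches 80% but some replicate falls short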
UUG fidelity: modulators of start codon recognition fidelity in yeast; AID 602363; hit rate 0.13% among 350,000; activity score, % at 18.7 µM; S. cerevisiae UUG-firefly luciferase reporter, luminescence/redox ratio;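 active = replicate mean at a twofold rise or more, about +100% in these data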;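 note: firefly luciferase made from a UUG start codon reports start codon fidelity; reporter light over untreated wells divided by growth signal over untreated wells; some hits fall short of that in this replicate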
Numbers stand for hits; n = inactive; u = inconclusive; x = no result. An excerpt weighted towards active compounds, which were near 2.1% of everything screened.

SMILES	Wnt act	miR122 inh	PGC1a acetyl inh	TRPM1 prom inh	MITF TRPM1 HTS	UUG fidelity
C[C@@H]1CN([C@H](C)CO)C(=O)c2cc(NC(=O)Nc3ccc4c(c3)OCO4)ccc2O[C@H]1CN(C)S(=O)(=O)c1ccccc1	x	n	n	x	x	n
NCCCCCCNC(=O)[C@H]1C[C@H]2C(=O)N[C@@H](Cc3ccccc3)C(=O)N2[C@H]1c1cccc(OCCO)c1	x	x	n	x	x	n
CC(C)(C)n1[nH]c2c3c(ccc2c1=O)C(=O)c1ccccc1C3=O	n	n	n	u	x	x
COCCCn1[nH]c2c3c(ccc2c1=O)C(=O)c1ccccc1C3=O	x	n	u	61	n	n
O=C1c2cccc(NCCNCCO)c2C(=O)c2cccc(NCCNCCO)c21	n	x	x	81	n	x
O=c1c2ccccc2nc(SCc2nc3ccccc3s2)n1CCCO	41	n	x	n	n	n
O=C(NC1CCCCCC1)C(=O)NC1CC1	n	n	n	n	x	n
O=C(NC1CCCCCC1)C(=S)NC1CCCCC1	33	x	x	n	n	x
O=C(NC1CCCCCCC1)NC1CCCCC1	58	n	n	n	91	n
COc1ccccc1C#Cc1cnc2c(c1)C(=O)N([C@@H](C)CO)C[C@H](C)[C@@H](CN(C)C(=O)c1ccc3c(c1)OCO3)O2	x	n	n	x	x	x
O=C(N/N=C/c1cc(Br)cs1)C(O)c1ccccc1 (stereo not given)	n	n	n	n	x	n
O=C(N/N=C/c1ccc(Cl)s1)C(O)c1ccccc1 (stereo not given)	n	123	n	n	n	n
C[C@@H]1CCCCO[C@H](CN(C)C(=O)c2ccccc2)[C@H](C)CN([C@@H](C)CO)C(=O)c2cc(NS(=O)(=O)c3cn(C)cn3)ccc2O1	x	n	n	x	x	n
COc1ccc(C2C(C#N)=C(C)NC3=C2C(=O)c2ccccc23)cc1 (stereo not given)	x	n	n	n	n	n
COc1cc(C2C(C#N)=C(C)NC3=C2C(=O)c2ccccc23)cc(OC)c1OC (stereo not given)	n	n	n	77	n	n
CO[C@H](CN(C)C(=O)Nc1ccc(C(F)(F)F)cc1)[C@H](C)CN(Cc1ccccc1Cl)[C@H](C)CO	x	x	n	x	x	x
CCCCCc1ccc(OCCC[n+]2ccccc2)c(CCCCC)c1	n	x	x	105	n	x
C[n+]1cn(CC(O)COCc2ccccc2)c2ccccc21 (stereo not given)	x	n	n	n	n	n
CCCCCc1ccc(OCCOCCn2c[n+](C)c3ccccc32)c(CCCCC)c1	x	x	x	77	n	x
O=C(C[C@@H]1CC[C@H]2[C@@H](COC[C@@H](O)CN2C(=O)Nc2ccccc2)O1)NC1Cc2ccccc2C1	x	n	n	x	x	n
O=C(Nc1cccc(-c2ccc(N3CCOCC3)nn2)c1)c1ccccc1	n	n	n	n	u	x
CC(=O)c1cccc(OCC(=O)Nc2cc(S(=O)(=O)N3CCOCC3)ccc2N2CCCC2)c1	n	x	x	n	n	x
O=C(COc1ccccc1)Nc1cccc(-c2ccc(N3CCOCC3)nn2)c1	u	n	n	n	86	n
O=C(Nc1cccc(-c2ccc(N3CCOCC3)nn2)c1)c1ccc([N+](=O)[O-])cc1	31	n	n	n	99	n
Cc1ccccc1C(=O)Nc1cccc(-c2ccc(N3CCOCC3)nn2)c1	n	n	n	n	n	n
SMILES	Wnt act	miR122 inh	PGC1a acetyl inh	TRPM1 prom inh	MITF TRPM1 HTS	UUG fidelity
CC(=O)c1cccc(OCC(=O)Nc2ccccc2N2CCOCC2)c1	n	93	n	n	n	n
Cc1ccc(C(=O)Nc2cccc(-c3ccc(N4CCOCC4)nn3)c2)cc1[N+](=O)[O-]	33	n	n	n	103	n
C[C@@H]1CCCCO[C@H](CN(C)CC2CCCCC2)[C@H](C)CN([C@@H](C)CO)C(=O)c2cc(NC(=O)CCC(F)(F)F)ccc2O1	x	n	n	x	x	n
O=[N+]([O-])c1ccc(Cl)c(S(=O)(=O)Nc2cccc(-c3ccc(N4CCOCC4)nn3)c2)c1	n	n	n	n	86	n
C[C@@H]1CN([C@H](C)CO)C(=O)CCCn2nncc2CO[C@@H]1CN(C)Cc1ccc(C(=O)O)cc1	x	x	n	x	x	x
C[C@@H]1CN([C@@H](C)CO)C(=O)c2cc(C#CC3(O)CCCC3)cnc2O[C@@H]1CN(C)C(=O)Cc1cccnc1	x	n	n	x	x	n
C[n+]1c2n(c3ccccc31)N=C(c1ccc(Cl)cc1)CS2	x	n	x	61	x	n
CNC[C@@H]1Oc2ccc(N)cc2C(=O)N([C@H](C)CO)C[C@H]1C	x	n	n	x	x	n
Cc1c(O)ccc(/C(Cc2ccc3ccccc3n2)=N\O)c1O	36	n	n	n	x	n
C[C@H](CO)N1C[C@H](C)[C@H](CN(C)C(=O)Nc2ccc(C(F)(F)F)cc2)Oc2ncc(C#C[C@@H](C)O)cc2C1=O	x	x	n	x	x	n
O=[N+]([O-])c1ccccc1C=NNc1ccccc1	35	x	n	n	n	n
O=[N+]([O-])c1ccccc1N/N=C\c1ccccc1F	57	n	n	n	n	n
O=[N+]([O-])c1ccccc1/C=N/OCc1ccccc1	n	n	n	n	101	n
CN(C)CC(=O)Nc1ccc2c(c1)[C@@H]1C[C@@H](CC(=O)NCC3CC3)O[C@@H](CO)[C@@H]1O2	x	n	n	x	x	n
C[C@H]1CN([C@@H](C)CO)C(=O)c2cccc(NC(=O)Nc3ccc(C(F)(F)F)cc3)c2O[C@H]1CN(C)S(=O)(=O)c1ccc(Cl)cc1	x	n	n	x	x	n
C[C@H]1CN([C@@H](C)CO)C(=O)c2cccc(NC(=O)c3ccncc3)c2O[C@H]1CN(C)S(=O)(=O)c1cccs1	x	n	n	x	x	n
O=C(Nc1nc(-c2ccccc2)cs1)c1ccc2c(c1)S(=O)(=O)c1ccccc1C2=O	x	x	x	n	n	x
O=C(Nc1nc(-c2cccc3ccccc23)cs1)c1ccc2c(c1)S(=O)(=O)c1ccccc1C2=O	n	n	n	63	n	n
CC(C)CC#Cc1ccc2c(c1)O[C@H](CN(C)Cc1ccccc1F)[C@H](C)CN([C@@H](C)CO)S2(=O)=O	x	n	n	x	x	n
CCC(=C(c1ccc(OC)cc1)c1ccc(OC)cc1)c1cn(CC(O)CN2CCN(C)CC2)c2ccccc12 (stereo not given)	x	n	x	86	n	n
CO[C@H](CN(C)S(=O)(=O)c1ccc(F)cc1)[C@H](C)CN(C(=O)Nc1ccccc1F)[C@H](C)CO	x	x	n	x	x	x
O=C1/C(=C/c2ccc([N+](=O)[O-])cc2)C=C(c2ccccc2)N1c1ccccc1	x	x	n	n	n	n
O=C1/C(=C/c2ccc([N+](=O)[O-])cc2)C=C(c2ccccc2)N1c1ccc(O)cc1	n	x	x	68	n	x
COc1ccc(CN(C)C[C@H]2OCCCC[C@H](C)Oc3ccc(NS(=O)(=O)c4cn(C)cn4)cc3C(=O)N([C@@H](C)CO)C[C@H]2C)cc1	x	n	n	x	x	n
COc1ccc(C(=O)c2c[nH]c3ccccc23)cc1	n	n	n	n	86	n
COc1ccc(CC(=O)OCC(=O)c2c[nH]c3ccccc23)cc1	n	x	n	n	n	n

Bioassay records as filed in PubChem.
